These are literature values, as cited in patent US20220304945A1, “METHODS OF TREATING METABOLIC SYNDROME RELATED CONDITIONS USING RETINOIC ACID RECEPTOR AGONISTS” (Cornell University, priority 2014, published 2022).

Sequences of proteins named here, by UniProt entry; tags and fusion partners are left off. Residues count along the entry.
UniProt P10826, 1-448 isoform 2: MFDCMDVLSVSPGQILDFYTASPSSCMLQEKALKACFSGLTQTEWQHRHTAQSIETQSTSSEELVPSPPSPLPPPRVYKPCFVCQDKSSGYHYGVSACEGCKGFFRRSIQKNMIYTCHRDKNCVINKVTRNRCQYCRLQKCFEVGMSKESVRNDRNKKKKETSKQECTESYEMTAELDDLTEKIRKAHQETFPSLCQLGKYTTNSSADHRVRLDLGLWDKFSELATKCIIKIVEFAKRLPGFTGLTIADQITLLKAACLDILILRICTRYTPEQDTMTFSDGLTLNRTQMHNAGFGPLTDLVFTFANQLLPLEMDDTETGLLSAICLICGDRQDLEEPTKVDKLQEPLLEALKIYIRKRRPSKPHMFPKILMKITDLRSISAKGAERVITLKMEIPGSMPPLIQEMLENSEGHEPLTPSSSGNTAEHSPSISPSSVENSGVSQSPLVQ

Usually pEC50 stands for the negative decadic logarithm of the EC50, by convention in mol/L.

The series concerns the target RARβ2 (Homo sapiens, UniProt P10826). The note with it: from Table 1 and Table 2 of WO2007/009083; cited from earlier work.

Take `CCCCCCOc1ccc(-c2ccc(C(=O)OCc3ccco3)cc2)cc1`: the “% Eff.” value was 25% and the negative logarithm of the EC50 (pEC50) is listed as 6.75. For the compound `CCCCCCCCc1ccc(-c2ccc(C(=O)OCCC#N)cc2)cc1`, the “% Eff.” value was 71% and the negative logarithm of the EC50 (pEC50) is reported as 6.95. Consider `CCCCCCCCOc1ccc(-c2ccc(C(=O)OCc3ccco3)cc2)cc1`, for which the “% Eff.” value was 67% and the pEC50 is reported as 6.67.

Consider `CCCCCCCOc1ccc(-c2ccc(C(=O)OCCc3ccccn3)cc2)cc1`, for which the “% Eff.” value is reported as 62% and the pEC50 was 7.04. Regarding `CCCCCCCCc1ccc(-c2ccc(C(=O)OCc3ccco3)cc2)cc1`, the “% Eff.” value is recorded as 49% and the pEC50 is listed as 6.56. In the case of `CCCCCCCCOc1ccc(-c2ccc(C(=O)OCCC#N)cc2)cc1`, the “% Eff.” value is 46% and the pEC50 is reported as 6.71. Take `CCCCCCCCc1ccc(-c2ccc(C(=O)OCCc3ccccn3)c(F)c2)cc1`: the pEC50 is 7.79.

On to `CCCCCCCc1ccc(-c2ccc(C(=O)OCCc3ccccn3)c(F)c2)cc1`, for which the “% Eff.” value is given as 95% and the pEC50 is recorded as 7.71. As for `CCCCCCCc1ccc(-c2ccc(C(=O)OCCC#N)cc2)cc1`, the “% Eff.” value was 36% and the pEC50 is 7.28.
